Source: publication PMC11384906, “PAR1-mediated Non-periodical Synchronized Calcium Oscillations in Human Mesangial Cells” (Function, 2024)

Protein sequences, listed by entry. Tags and fused reporters are not part of them. Residues count along the entry.
UniProt P25116, 22-425: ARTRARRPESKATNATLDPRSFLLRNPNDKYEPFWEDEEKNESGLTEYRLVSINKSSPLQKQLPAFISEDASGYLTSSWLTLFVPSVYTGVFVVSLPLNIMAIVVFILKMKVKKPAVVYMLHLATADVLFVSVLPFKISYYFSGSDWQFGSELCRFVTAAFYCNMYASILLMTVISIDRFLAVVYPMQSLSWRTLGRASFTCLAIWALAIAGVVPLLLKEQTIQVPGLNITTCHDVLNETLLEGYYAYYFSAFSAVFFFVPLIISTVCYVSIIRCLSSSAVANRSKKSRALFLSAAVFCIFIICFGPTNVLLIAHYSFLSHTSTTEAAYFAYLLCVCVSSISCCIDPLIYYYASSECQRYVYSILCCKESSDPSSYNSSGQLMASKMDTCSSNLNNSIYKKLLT

Biological target: PAR1 (Homo sapiens, UniProt P25116)
Test: cell-based

## CC(C)C[C@H](NC(=O)[C@H](CC(C)C)NC(=O)[C@H](Cc1ccccc1)NC(=O)[C@@H](N)[C@@H](C)O)C(=O)N[C@@H](CCCNC(=N)N)C(N)=O [TFLLR-NH2]
  EC50: 3 ± 0.8 nM
EC50, Ca2+ response to PAR1 agonist, female-derived HRMCs, Fluo-8H, AM, room temperature
  EC50: 6.3 ± 0.2 nM

Like-named read-outs stand apart in the source and are kept apart here.
